Experimental data: patent publication US6476021B1 (priority 1997, dated 2002)

Protein sequences, listed by entry. Tags and fused reporters are not part of them. Residues count along the entry.
UniProt A0A8I3NYE0, 1-1135: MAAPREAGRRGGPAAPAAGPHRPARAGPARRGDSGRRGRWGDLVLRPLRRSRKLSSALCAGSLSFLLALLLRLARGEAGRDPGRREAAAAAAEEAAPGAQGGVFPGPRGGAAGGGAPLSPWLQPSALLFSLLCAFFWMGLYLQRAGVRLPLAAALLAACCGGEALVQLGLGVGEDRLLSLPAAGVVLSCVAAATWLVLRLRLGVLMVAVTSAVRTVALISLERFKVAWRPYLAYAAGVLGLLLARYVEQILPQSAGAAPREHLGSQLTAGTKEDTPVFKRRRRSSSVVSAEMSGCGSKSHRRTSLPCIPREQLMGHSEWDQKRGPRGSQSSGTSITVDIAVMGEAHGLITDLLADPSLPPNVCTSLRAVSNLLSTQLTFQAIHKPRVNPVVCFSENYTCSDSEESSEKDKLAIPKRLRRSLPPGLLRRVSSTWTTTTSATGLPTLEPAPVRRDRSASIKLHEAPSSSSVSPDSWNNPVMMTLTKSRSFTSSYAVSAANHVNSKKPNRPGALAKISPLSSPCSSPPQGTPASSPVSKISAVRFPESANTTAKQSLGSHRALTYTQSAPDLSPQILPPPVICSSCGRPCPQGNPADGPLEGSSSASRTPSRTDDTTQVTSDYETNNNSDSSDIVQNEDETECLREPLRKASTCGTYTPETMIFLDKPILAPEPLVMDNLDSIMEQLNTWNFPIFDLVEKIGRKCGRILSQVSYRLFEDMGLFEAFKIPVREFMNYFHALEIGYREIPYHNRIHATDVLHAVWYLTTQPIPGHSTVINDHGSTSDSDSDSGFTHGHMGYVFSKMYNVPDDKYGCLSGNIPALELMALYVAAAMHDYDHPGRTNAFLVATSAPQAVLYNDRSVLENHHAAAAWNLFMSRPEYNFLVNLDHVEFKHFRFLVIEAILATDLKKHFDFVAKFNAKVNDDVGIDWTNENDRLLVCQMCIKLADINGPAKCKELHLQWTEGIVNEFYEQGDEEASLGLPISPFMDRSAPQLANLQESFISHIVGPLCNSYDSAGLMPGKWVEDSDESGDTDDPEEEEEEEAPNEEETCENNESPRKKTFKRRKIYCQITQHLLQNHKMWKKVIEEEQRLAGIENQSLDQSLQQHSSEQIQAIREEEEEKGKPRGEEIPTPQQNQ
UniProt P11541, 2-856: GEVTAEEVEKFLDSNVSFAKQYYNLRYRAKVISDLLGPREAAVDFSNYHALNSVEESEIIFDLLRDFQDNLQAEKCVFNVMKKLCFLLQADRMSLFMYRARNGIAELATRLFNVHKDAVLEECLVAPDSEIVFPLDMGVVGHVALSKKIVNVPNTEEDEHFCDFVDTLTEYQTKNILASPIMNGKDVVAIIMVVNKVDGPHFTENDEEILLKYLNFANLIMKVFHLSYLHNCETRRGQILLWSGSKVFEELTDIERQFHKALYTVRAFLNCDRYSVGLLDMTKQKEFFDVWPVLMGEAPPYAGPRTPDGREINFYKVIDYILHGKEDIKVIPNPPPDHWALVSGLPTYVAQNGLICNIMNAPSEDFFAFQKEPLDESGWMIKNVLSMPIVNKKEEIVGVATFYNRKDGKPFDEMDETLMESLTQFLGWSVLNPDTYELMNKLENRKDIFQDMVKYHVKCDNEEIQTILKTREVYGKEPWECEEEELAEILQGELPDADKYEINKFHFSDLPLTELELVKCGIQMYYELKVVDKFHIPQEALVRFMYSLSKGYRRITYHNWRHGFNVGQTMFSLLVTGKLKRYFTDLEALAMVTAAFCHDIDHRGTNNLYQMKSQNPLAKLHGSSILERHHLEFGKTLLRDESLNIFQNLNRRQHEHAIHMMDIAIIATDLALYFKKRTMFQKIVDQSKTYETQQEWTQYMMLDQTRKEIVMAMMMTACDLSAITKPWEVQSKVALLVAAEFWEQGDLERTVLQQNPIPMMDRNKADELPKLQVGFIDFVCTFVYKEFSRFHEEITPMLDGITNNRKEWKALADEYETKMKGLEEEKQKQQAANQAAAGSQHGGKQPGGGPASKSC
UniProt P23439, 2-850: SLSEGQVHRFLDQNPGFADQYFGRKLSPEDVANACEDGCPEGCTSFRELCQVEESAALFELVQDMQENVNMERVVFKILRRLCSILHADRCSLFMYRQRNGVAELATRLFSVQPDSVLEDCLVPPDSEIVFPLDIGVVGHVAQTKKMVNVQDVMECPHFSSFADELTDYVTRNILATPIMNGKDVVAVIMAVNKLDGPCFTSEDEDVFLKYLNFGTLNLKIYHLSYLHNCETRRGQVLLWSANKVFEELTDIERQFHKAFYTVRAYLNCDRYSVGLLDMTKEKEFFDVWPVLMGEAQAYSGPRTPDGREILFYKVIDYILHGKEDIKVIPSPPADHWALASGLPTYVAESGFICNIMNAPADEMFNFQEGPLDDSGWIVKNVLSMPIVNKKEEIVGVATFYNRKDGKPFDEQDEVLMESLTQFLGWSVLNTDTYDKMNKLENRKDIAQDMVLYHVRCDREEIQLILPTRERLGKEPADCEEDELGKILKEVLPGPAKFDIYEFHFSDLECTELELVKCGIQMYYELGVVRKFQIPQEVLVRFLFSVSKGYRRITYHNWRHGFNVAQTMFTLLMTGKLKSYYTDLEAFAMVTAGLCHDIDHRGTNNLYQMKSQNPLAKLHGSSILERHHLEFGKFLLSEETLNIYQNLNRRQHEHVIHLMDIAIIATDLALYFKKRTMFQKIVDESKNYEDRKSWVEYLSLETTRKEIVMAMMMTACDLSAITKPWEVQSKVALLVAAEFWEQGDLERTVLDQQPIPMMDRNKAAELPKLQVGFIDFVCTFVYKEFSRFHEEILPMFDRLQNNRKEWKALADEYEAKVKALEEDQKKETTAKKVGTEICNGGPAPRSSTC

Experiments:
PDE type V = PDE type V (Canis lupus familiaris, UniProt O77746); conditions: read-out: Inhibition Activity IC50 Type V; PDE type V from canine aorta; 1 μM substrate
PDE type III = PDE type III (Canis lupus familiaris, UniProt A0A8I3NYE0); conditions: read-out: Inhibition Activity IC50 Type III; PDE type III from canine aorta; 1 μM substrate
PDE type VI = PDE type VI (Bos taurus, UniProt P11541+P23439); conditions: read-out: Inhibition Activity IC50 Type VI; activated PDE type VI from bovine retina; 1 μM substrate
[1] = rat, in vivo, 100 mg/kg

Row | Substance | IC50 (PDE type V) | IC50 (PDE type III) | IC50 (PDE type VI) | body weights and general symptoms [1]
1 | 5-(1-benzotriazolylmethyloxy)-10-bromo-2-(3-pyridylmethyl)-3H-pyrido[3,2,1-kl]phenothiazin-3-one [Example 47] | 4.5 nM | 14000 nM | 71 nM | 
2 | 5-benzyl-4H[6]-azaindolo[3,2,1-ij]quinolin-4-one [Example 29] |  |  |  | nothing abnormal
